# Reference: US5877026A, “Analgesic peptides from venom of Grammostola spatulata and use thereof” (priority 1998, dated 1999)
# How the values were obtained:
# [1] = system: opioid receptors; experiment: Opioid receptor testing (opioid antagonist pretreatment); format: in vivo, rat; settings: 3 μg i.th.
# Protocol: Animals were then tested in the tail flick test (Example 3) and von Frey tests (Example 5).
# [2] = system: Sprague Dawley rats; settings: rat, in vivo
smiles,measurement,setting,value
"CN1CC[C@]23c4c5ccc(O)c4O[C@H]2[C@@H](O)C=C[C@H]3[C@H]1C5 [morphine, reference compound]",effect of intrathecal naloxone on analgesic response,[1]; naloxone 50 μg i.th.,reversal
same,effect of naloxone pretreatment on analgesic effect,"[1]; naloxone 10mg/kg subcutaneous, tail flick and von Frey tests",completely antagonized
same,"shift in the dose response curve, morphine-treated versus saline vehicle",[2],300 ×
